Results as given in ChEMBL document CHEMBL1811796, “Requirements for mammalian carboxylesterase inhibition by substituted ethane-1,2-diones” (Bioorg Med Chem, 2011).

Biological target: T1, Cocaine esterase (Homo sapiens, UniProt O00748)
T1 sequence (O00748 whole entry): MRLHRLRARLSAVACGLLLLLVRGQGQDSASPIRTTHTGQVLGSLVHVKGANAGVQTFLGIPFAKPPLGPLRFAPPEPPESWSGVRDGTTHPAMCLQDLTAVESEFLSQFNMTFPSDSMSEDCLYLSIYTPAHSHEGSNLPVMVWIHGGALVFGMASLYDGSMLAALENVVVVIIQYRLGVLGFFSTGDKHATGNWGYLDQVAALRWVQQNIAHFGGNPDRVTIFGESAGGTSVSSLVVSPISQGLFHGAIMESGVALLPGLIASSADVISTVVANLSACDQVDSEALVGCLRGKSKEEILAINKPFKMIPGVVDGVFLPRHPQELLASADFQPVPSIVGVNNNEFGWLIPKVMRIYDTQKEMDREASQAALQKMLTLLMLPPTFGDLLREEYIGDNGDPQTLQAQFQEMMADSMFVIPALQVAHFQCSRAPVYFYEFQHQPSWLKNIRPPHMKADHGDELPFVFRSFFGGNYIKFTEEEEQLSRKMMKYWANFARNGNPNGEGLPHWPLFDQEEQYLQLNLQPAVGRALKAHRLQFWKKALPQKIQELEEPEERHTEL
Assay: Inhibition of human intestinal carboxylesterase using o-nitrophenyl acetate as substrate after 5 mins by spectrophotometry

In the case of `CCCC(=O)C(=O)CCC`, the Ki is reported as 4.67 µM.
